Experimental data as given in patent publication US10118930B2, “Piperidinylpyrazolopyrimidinones and their use” (BAYER PHARMA AKTIENGESELLSCHAFT, priority 2015, dated 2018).

These compounds were tested on clot lysis (fibrinolysis) in diluted human citrated plasma, tPA-induced (assay: Plasma-based clot lysis assay (5%)). Settings: human citrated platelet-poor plasma 5%, fibrinogen 3 μM, CaCl2 10 mM, tPA 0.2 nM, 37° C., OD at 405 nm.
Assay type: biochemical
Description: B-2. Plasma-based Clot Lysis Assay (5%)
The clot-lysis test system configures the kinetics of clot formation and degradation in vitro and allows quantifying modulation of the process by selected test compounds.
The test compounds were dissolved in 1% acetic acid and further complemented with an equal volume of DMSO. The resulting stock solutions were serially diluted in 0.5% acetic acid/50% DMSO. 1 μL aliquots of these solutions were placed into 384 well microplates (Greiner, black, transparent bottom), followed by 30 μL of diluted human citrated plasma (platelet-poor, final concentration: 5%; supplemented with fibrinogen, final concentration: 3 μM; dilution buffer: 20 mM HEPES, 150 mM NaCl, 0.01% Brij (pH 7)). The reactions were started by addition of 20 μL of CaCl2 (final concentration: 10 mM), and tPA (tissue plasminogen activator, final concentration: 0.2 nM) in dilution buffer, followed by an additional volume of 20 μL dilution buffer for improved mixing. The reactions were incubated at 37° C. […] IC50 values were determined by comparing the resulting time courses with the time course of a blank control reaction.
`Cc1cnc(Cc2nnc(-c3cnn4c(C5CCNCC5)cc(=O)[nH]c34)o2)s1` [Example 277, 3-{5-[(5-methyl-1,3-thiazol-2-yl)methyl]-1,3,4-oxadiazol-2-yl}-7-(piperidin-4-yl)pyrazolo[1,5-a]pyrimidin-5(4H)-one hydrochloride] gave an IC50 of 17 nM. `Cc1nn2c(C3CCNCC3)cc(=O)[nH]c2c1C(=O)N1CC(C)OC(C)C1` (stereo not shown) [Example 419, 3-[(2,6-dimethyl-morpholin-4-yl)carbonyl]-2-methyl-7-(piperidin-4-yl) pyrazolo[1,5-a] pyrimidin-5(4H)-one hydrochloride] gave an IC50 of 35 nM. Compound `Cc1nn2c(C3CCNCC3)cc(=O)[nH]c2c1C(=O)N1CCc2ccccc2C1` [Example 414, 3-(3,4-dihydro-isoquinolin-2(1H)-ylcarbonyl)-2-methyl-7-(piperidin-4-yl) pyrazolo[1,5-a] pyrimidin-5(4H)-one hydrochloride] has an IC50 of 35 nM. In the case of `O=c1cc(C2CCNCC2)n2ncc(-c3nc(-c4ccc(F)cc4)no3)c2[nH]1` [Example 126, 3-[3-(4-Fluorophenyl)-1,2,4-oxadiazol-5-yl]-7-(piperidin-4-yl)pyrazolo[1,5-a]pyrimidin-5 (4H)-one hydrochloride], the IC50 is reported as 47 nM. Compound `O=c1cc(C2CCNCC2)n2nc(-c3ccccc3)c(-c3ccc(F)cc3)c2[nH]1` [Example 64, 3-(4-Fluorophenyl)-2-phenyl-7-(piperidin-4-yl)pyrazolo[1,5-a]pyrimidin-5(4H)-one hydrochloride] has an IC50 of 39 nM. `O=c1cc(C2CCNCC2)n2ncc(-c3nc(-c4cc(F)cc(Cl)c4)no3)c2[nH]1` [Example 138, 3-[3-(3-Chloro-5-fluorophenyl)-1,2,4-oxadiazol-5-yl]-7-(piperidin-4-yl)pyrazolo[1,5-a]pyrimidin-5(4H)-one hydrochloride] was tested, and the IC50 was 39 nM. Work on `O=C(NCc1ccccc1)c1c(-c2ccccc2)nn2c(C3CCNCC3)cc(=O)[nH]c12` [Example 42, N-Benzyl-5-oxo-2-phenyl-7-(piperidin-4-yl)-4,5-dihydropyrazolo[1,5-a]pyrimidine-3-carboxamide trifluoroacetate] yielded an IC50 of 18 nM. For `O=c1cc(C2CCNCC2)n2ncc(-c3nnc(Cc4ccccn4)o3)c2[nH]1` [Example 285, 7-(piperidin-4-yl)-3-[5-(pyridin-2-ylmethyl)-1,3,4-oxadiazol-2-yl]pyrazolo[1,5-a]pyrimidin-5 (4H)-one trihydrochloride], the IC50 was 28 nM. Work on `CC(C)(C)c1nc(-c2cnn3c(C4CCNCC4)cc(=O)[nH]c23)no1` [Example 257, 3-(5-tert-butyl-1,2,4-oxadiazol-3-yl)-7-(piperidin-4-yl)pyrazolo[1,5-a]pyrimidin-5(4H)-one hydrochloride] yielded an IC50 of 34 nM. For `CN(CCC(N)=O)C(=O)c1cnn2c(C3CCNCC3)cc(=O)[nH]c12` [Example 99, N-(3-amino-3-oxopropyl)-N-methyl-5-oxo-7-(piperidin-4-yl)-4,5-dihydropyrazolo[1,5-a]pyrimidine-3-carboxamide hydrochloride], the IC50 was 49 nM. `O=c1cc(C2CCNCC2)n2ncc(-c3noc(C45CCC(CC4)CC5)n3)c2[nH]1` [Example 261, 3-[5-(bicyclo[2.2.2]oct-1-yl)-1,2,4-oxadiazol-3-yl]-7-(piperidin-4-yl)pyrazolo[1,5-a]pyrimidin-5(4H)-one hydrochloride] showed an IC50 of 24 nM. `O=c1cc(C2CCNCC2)n2ncc(-c3nc(C4(Cl)CC4)cs3)c2[nH]1` [Example 336, 3-[4-(1-chlorocyclopropyl)-1,3-thiazol-2-yl]-7-(piperidin-4-yl)pyrazolo[1,5-a]pyrimidin-5(4H)-one hydrochloride] gave an IC50 of 25 nM. Compound `O=c1cc(C2CCNCC2)n2nc3c(c2[nH]1)CCCC3` [Example 333, 4-(piperidin-4-yl)-7,8,9,10-tetrahydropyrimido[1,2-b]indazol-2(1H)-one hydrochloride] has an IC50 of 370 nM. Compound `O=c1cc(C2CCNCC2)n2ncc(-c3cc(-c4ccccc4)no3)c2[nH]1` [Example 263, 3-(3-phenyl-1,2-oxazol-5-yl)-7-(piperidin-4-yl)pyrazolo[1,5-a]pyrimidin-5(4H)-one hydrochloride] has an IC50 of 28 nM. With `COc1ccc(-c2noc(-c3cnn4c(C5CCNCC5)cc(=O)[nH]c34)n2)cc1` [Example 156, 3-[3-(4-methoxyphenyl)-1,2,4-oxadiazol-5-yl]-7-(piperidin-4-yl)pyrazolo[1,5-a]pyrimidin-5(4H)-one hydrochloride] the IC50 was 16 nM. `O=C(c1cnn2c(C3CCNCC3)cc(=O)[nH]c12)N1CCC(F)(F)CC1` [Example 362, 3-[(4,4-difluoropiperidin-1-yl)carbonyl]-7-(piperidin-4-yl)pyrazolo[1,5-a]pyrimidin-5 (4H)-one hydrochloride] showed an IC50 of 21 nM. In the case of `CC1CCCN1C(=O)c1cnn2c(C3CCNCC3)cc(=O)[nH]c12` (stereo in doubt) [Example 325, 3-{[(2R)-2-methylpyrrolidin-1-yl]carbonyl}-7-(piperidin-4-yl)pyrazolo[1,5-a]pyrimidin-5(4H)-one hydrochloride], the IC50 is reported as 18 nM. For `CCCOC(=O)c1cnn2c(C3CCNCC3)cc(=O)[nH]c12` [Example 358, Propyl 5-oxo-7-(piperidin-4-yl)-4,5-dihydropyrazolo[1,5-a]pyrimidine-3-carboxylate hydrochloride], the IC50 was 24 nM. `Cc1ccccc1-c1nc(-c2cnn3c(C4CCNCC4)cc(=O)[nH]c23)no1` [Example 225, 3-[5-(2-methylphenyl)-1,2,4-oxadiazol-3-yl]-7-(piperidin-4-yl)pyrazolo[1,5-a]pyrimidin-5(4H)-one hydrochloride] gave an IC50 of 34 nM. `Cc1nn2c(C3CCNCC3)cc(=O)[nH]c2c1-c1nc(C2CC2(C)C)no1` (stereo not shown) [Example 346, 3-[3-(2,2-dimethylcyclopropyl)-1,2,4-oxadiazol-5-yl]-2-methyl-7-(piperidin-4-yl)pyrazolo[1,5-a]pyrimidin-5(4H)-one hydrochloride] was tested, and the IC50 was 17 nM. `COc1ccccc1-c1nnc(-c2cnn3c(C4CCNCC4)cc(=O)[nH]c23)o1` [Example 184, 3-[5-(2-methoxyphenyl)-1,3,4-oxadiazol-2-yl]-7-(piperidin-4-yl)pyrazolo[1,5-a]pyrimidin-5(4H)-one hydrochloride] showed an IC50 of 36 nM. In the case of `O=c1cc(C2CCNCC2)n2ncc(-c3nc(-c4cccc(Cl)c4)no3)c2[nH]1` [Example 153, 3-[3-(3-chlorophenyl)-1,2,4-oxadiazol-5-yl]-7-(piperidin-4-yl)pyrazolo[1,5-a]pyrimidin-5(4H)-one hydrochloride], the IC50 is reported as 31 nM. For `COCCc1noc(-c2cnn3c(C4CCNCC4)cc(=O)[nH]c23)n1` [Example 206, 3-[3-(2-methoxyethyl)-1,2,4-oxadiazol-5-yl]-7-(piperidin-4-yl)pyrazolo[1,5-a]pyrimidin-5(4H)-one hydrochloride], the IC50 was 20 nM. In the case of `O=c1cc(C2CCNCC2)n2ncc(-c3nc(-c4cccc(C(F)(F)F)c4)no3)c2[nH]1` [Example 111, 7-(Piperidin-4-yl)-3-{3-[3-(trifluoromethyl)phenyl]-1,2,4-oxadiazol-5-yl}pyrazolo[1,5-a]pyrimidin-5(4H)-one hydrochloride], the IC50 is reported as 32 nM.

Same assay, conditions: human citrated platelet-poor plasma 5%, fibrinogen 3 μM, CaCl2 10 mM, tPA 0.2 nM, 37° C., OD at 405 nm; hydrochloride
For `Cc1nn2c(C3CCNCC3)cc(=O)[nH]c2c1-c1cccc(C(F)(F)F)c1` [Example 7, 2-Methyl-7-(piperidin-4-yl)-3-[3-(trifluoromethyl)phenyl]pyrazolo[1,5-a]pyrimidin-5 (4H)-one hydrochloride], the IC50 was 31 nM.

Where a name gives a salt, the structure may show the parent alone.
